The chains behind the UniProt entries cited, without tags or fusion partners. Where a name states a change or a piece, a line headed by the entry shows the natural chain unless it says otherwise.
UniProt P11511, whole entry: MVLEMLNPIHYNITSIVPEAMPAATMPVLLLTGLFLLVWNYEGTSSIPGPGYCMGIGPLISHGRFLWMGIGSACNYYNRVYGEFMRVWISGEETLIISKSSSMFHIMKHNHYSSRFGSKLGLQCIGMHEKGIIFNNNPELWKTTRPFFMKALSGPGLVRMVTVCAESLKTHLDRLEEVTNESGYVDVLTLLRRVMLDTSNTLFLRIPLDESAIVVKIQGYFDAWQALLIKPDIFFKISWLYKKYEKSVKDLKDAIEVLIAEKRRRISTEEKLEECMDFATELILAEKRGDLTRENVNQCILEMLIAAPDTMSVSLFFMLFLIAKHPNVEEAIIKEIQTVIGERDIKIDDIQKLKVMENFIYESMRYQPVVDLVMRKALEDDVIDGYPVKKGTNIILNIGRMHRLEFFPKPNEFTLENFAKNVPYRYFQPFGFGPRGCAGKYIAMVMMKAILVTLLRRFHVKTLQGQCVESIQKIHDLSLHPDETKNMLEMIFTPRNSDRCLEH
UniProt P11511, whole entry D309A: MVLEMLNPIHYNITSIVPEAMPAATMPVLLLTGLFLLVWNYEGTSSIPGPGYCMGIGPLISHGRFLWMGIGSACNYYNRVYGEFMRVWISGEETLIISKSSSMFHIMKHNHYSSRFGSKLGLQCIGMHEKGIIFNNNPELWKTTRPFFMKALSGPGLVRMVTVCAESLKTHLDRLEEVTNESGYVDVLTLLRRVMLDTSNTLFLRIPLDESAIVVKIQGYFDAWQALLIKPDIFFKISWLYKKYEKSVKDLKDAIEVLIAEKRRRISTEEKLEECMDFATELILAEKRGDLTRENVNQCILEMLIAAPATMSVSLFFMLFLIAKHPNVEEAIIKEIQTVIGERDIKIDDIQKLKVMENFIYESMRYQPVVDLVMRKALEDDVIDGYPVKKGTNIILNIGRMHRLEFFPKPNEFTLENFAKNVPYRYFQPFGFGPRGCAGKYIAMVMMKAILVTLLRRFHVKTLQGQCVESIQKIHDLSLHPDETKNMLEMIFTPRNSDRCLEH
UniProt P11511, whole entry E302D: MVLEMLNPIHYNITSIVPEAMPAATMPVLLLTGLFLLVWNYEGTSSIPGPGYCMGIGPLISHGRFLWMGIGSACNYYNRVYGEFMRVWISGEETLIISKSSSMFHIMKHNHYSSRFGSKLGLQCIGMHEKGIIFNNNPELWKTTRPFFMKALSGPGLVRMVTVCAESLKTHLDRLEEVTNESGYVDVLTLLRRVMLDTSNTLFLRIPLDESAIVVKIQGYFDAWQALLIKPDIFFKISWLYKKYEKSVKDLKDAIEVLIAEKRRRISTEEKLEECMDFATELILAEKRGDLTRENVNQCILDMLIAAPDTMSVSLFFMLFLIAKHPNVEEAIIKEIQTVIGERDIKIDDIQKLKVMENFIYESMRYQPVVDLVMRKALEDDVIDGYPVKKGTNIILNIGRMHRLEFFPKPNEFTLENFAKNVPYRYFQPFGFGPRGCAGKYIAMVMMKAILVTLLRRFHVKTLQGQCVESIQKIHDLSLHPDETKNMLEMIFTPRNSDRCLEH
UniProt P11511, whole entry H480Q: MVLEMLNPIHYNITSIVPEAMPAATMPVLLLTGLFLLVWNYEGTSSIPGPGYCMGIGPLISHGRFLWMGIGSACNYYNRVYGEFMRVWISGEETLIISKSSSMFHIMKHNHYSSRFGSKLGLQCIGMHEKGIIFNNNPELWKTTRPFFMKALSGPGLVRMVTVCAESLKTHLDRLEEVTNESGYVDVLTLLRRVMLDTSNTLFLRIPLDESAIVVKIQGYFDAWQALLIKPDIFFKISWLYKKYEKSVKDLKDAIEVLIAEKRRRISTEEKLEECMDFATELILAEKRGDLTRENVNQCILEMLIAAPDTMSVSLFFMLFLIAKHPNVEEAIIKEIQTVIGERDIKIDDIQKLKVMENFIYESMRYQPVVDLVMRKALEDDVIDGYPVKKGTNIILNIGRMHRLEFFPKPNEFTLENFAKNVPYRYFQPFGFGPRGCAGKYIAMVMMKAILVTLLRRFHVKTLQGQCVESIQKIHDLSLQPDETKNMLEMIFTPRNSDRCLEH
UniProt P11511, whole entry I133Y: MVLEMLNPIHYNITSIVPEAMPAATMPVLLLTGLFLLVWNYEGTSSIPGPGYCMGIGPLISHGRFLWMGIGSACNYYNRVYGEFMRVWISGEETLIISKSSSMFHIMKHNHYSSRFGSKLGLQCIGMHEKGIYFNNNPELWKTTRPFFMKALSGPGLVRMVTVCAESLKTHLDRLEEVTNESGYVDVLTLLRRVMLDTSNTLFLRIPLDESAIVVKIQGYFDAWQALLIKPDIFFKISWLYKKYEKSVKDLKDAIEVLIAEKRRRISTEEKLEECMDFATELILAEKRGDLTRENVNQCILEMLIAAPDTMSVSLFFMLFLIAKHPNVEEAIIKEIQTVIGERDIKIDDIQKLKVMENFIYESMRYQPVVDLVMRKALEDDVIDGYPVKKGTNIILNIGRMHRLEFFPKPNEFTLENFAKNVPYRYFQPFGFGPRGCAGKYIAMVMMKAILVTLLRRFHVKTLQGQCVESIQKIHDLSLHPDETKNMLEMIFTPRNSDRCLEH
UniProt P11511, whole entry S478T: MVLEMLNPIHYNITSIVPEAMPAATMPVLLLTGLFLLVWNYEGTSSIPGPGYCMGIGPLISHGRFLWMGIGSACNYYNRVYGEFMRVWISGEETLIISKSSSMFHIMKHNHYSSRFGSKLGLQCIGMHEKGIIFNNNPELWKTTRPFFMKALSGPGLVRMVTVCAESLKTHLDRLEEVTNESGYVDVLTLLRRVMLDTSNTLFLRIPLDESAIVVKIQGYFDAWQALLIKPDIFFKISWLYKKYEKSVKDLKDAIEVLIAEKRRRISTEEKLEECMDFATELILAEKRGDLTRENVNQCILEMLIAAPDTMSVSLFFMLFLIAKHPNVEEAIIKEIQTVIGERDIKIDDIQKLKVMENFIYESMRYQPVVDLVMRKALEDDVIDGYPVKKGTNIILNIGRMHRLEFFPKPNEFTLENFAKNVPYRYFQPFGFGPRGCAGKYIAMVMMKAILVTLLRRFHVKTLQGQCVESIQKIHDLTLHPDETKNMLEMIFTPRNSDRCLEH
UniProt P11511, whole entry T310S: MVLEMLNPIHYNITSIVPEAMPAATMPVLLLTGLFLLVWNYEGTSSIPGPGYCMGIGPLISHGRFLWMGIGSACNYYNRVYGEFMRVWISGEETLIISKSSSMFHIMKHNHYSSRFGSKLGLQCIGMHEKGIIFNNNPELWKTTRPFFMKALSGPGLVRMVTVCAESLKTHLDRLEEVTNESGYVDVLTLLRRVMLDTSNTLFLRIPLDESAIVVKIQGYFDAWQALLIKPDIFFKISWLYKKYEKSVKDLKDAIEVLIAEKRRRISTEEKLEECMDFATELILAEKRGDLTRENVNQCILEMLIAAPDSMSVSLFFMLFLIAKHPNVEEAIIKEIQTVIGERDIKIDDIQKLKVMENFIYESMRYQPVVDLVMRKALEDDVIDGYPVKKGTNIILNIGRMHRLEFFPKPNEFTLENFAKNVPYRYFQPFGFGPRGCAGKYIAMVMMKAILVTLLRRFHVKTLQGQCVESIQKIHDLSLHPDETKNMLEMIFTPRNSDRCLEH

In patent publication US20060106092A1:

What was measured:
[1] = target: human aromatase mutant S478T (Homo sapiens, UniProt P11511, S478T); test: in vitro microsome aromatase assay on homogenates of mutant S478T aromatase transfected CHO cells; settings: FIG. 5
Method: (§1) In the presence of various concentrations of HPLC peak 1 procyanidin B dimer, an in vitro microsome assay was performed on the cell homogenates prepared from the wild-type and mutant human aromatase transfected CHO cells. The activities of the untreated samples were taken as 100%. Chinese hamster ovary (CHO) cells transfected with human wild-type and mutant aromatase were grown in Ham's medium, 1 mM sodium pyruvate, 2 mM L-glutamine, 1X-penicillin/streptomycin, 15 mM HEPES, and 10% FBS optimized for CHO cells (Hyclone).
(§2) Aromatase Site-Directed Mutagenesis Studies. The specificity of the interaction of peak 1 procyanidin B dimer with aromatase was further evaluated using aromatase active site mutants. […]
(§3) In vitro aromatase Assay. Aromatase activity was determined using the tritiated water release method.^8 The assay was performed using placental microsomes or microsomal fractions prepared from aromatase-expressing Chinese hamster ovary (CHO) cells. […]
(§4) For the second extraction, the upper aqueous phase was transferred to microfuge tubes containing a dextran-charcoal pellet. […] For each sample, a 300 μl aliquot of the supernatant containing the tritiated water product, was mixed with 3 ml Scintisafe 30% liquid scintillation cocktail and counted in a Tri-Carb Liquid Scintillation Analyzer 1600CA (Packard, Downers Grove, Ill.).

[2] = target: human placental aromatase (Homo sapiens, UniProt P11511); test: human placenta microsome aromatase assay (tritiated water release)
Method: In vitro aromatase Assay. Aromatase activity was determined using the tritiated water release method.^8 The assay was performed using placental microsomes or microsomal fractions prepared from aromatase-expressing Chinese hamster ovary (CHO) cells. The assay reaction mixture (500 μl) contained the substrate [1β-^3H(N)] androst-4-ene-3,17-dione (specific activity 24.7 Ci/mmol) (100 nM), microsomal preparations (20 μg), progesterone (10 μM), bovine serum albumin (0.1%) and potassium phosphate (67 mM, pH 7.4). Progesterone was required to suppress endogenous 5α-reductase in the cell homogenates that also consume the androgen substrate. After incubation for 10 minutes at room temperature, 50 μl of NADPH (12 mM) was added to the mixture and incubated in a 37° C. water bath for 10 minutes. At the end of 10 minutes, the reaction was stopped by the addition of 500 μl of 5% TCA. After a 10 minute centrifugation at 1000×g, supernatants were removed to new glass tubes and mixed with an equal volume of chloroform to remove unreacted substrate.
For the second extraction, the upper aqueous phase was transferred to microfuge tubes containing a dextran-charcoal pellet. Charcoal mixtures were vortexed and subsequently pelleted by centrifugation at 15,000×g for 5 minutes. For each sample, a 300 μl aliquot of the supernatant containing the tritiated water product, was mixed with 3 ml Scintisafe 30% liquid scintillation cocktail and counted in a Tri-Carb Liquid Scintillation Analyzer 1600CA (Packard, Downers Grove, Ill.).
To determine the aromatase suppression activity of wine chemicals, the assay was performed in the presence of wine fractions at the indicated amounts. Inhibition kinetic analysis on wine chemicals was performed with varying concentrations of the substrate androstenedione at 20, 40, 60, 100 and 200 nM.

[3] = target: human aromatase mutant D309A (Homo sapiens, UniProt P11511, D309A); test: in vitro microsome aromatase assay on homogenates of mutant D309A aromatase transfected CHO cells; settings: FIG. 5
Method: as §1, §2, §3, §4

[4] = target: human aromatase mutant H480Q (Homo sapiens, UniProt P11511, H480Q); test: in vitro microsome aromatase assay on homogenates of mutant H480Q aromatase transfected CHO cells; settings: FIG. 5
Method: as §1, §2, §3, §4

[5] = target: human aromatase mutant T310S (Homo sapiens, UniProt P11511, T310S); test: in vitro microsome aromatase assay on homogenates of mutant T310S aromatase transfected CHO cells; settings: FIG. 5
Method: as §1, §2, §3, §4

[6] = target: human aromatase mutant I133Y (Homo sapiens, UniProt P11511, I133Y); test: in vitro microsome aromatase assay on homogenates of mutant I133Y aromatase transfected CHO cells; settings: FIG. 5
Method: as §1, §2, §3, §4

[7] = target: human aromatase mutant E302D (Homo sapiens, UniProt P11511, E302D); test: in vitro microsome aromatase assay on homogenates of mutant E302D aromatase transfected CHO cells; settings: FIG. 5
Method: as §1, §2, §3, §4

manner of aromatase inhibition with respect to the substrate ([2]; enzyme kinetic analysis, FIG. 4): competitive
IC50 ([2]; read-out: IC50 of aromatase inhibition, human placental microsomes, 100 nM androstenedione substrate, calculated using a molecular weight of 579): 15 to 20 µM
Ki ([2]; read-out: Ki value, secondary plot (1/v versus [I]), androstenedione 20-200 nM): 6 µM
effect of mutation on inhibition compared to wild-type aromatase [5]: more effective dose response
effect of mutation on inhibition profile compared to wild-type aromatase [6]: did not alter the inhibition profile
effect of mutation on inhibition profile compared to wild-type aromatase [7]: did not alter the inhibition profile
Compound: Oc1cc(O)c2c(c1)OC(c1ccc(O)c(O)c1)C(O)C2c1c(O)cc2c(c1O)CC(O)C(c1ccc(O)c(O)c1)O2 (single isomer, unassigned)
effect of mutation on inhibition compared to wild-type aromatase [1]: significant in reversing the inhibitory action
effect of mutation on inhibition compared to wild-type aromatase [3]: completely eliminating the ability of HPLC peak 1 dimer to inhibit aromatase
effect of mutation on inhibition compared to wild-type aromatase [4]: significant in reversing the inhibitory action
